The results in this text go back to patent US11247989B2 (priority 2017, dated 2022).

Chains of the proteins cited; added tags and fusions are not shown.
UniProt Q92793, whole entry: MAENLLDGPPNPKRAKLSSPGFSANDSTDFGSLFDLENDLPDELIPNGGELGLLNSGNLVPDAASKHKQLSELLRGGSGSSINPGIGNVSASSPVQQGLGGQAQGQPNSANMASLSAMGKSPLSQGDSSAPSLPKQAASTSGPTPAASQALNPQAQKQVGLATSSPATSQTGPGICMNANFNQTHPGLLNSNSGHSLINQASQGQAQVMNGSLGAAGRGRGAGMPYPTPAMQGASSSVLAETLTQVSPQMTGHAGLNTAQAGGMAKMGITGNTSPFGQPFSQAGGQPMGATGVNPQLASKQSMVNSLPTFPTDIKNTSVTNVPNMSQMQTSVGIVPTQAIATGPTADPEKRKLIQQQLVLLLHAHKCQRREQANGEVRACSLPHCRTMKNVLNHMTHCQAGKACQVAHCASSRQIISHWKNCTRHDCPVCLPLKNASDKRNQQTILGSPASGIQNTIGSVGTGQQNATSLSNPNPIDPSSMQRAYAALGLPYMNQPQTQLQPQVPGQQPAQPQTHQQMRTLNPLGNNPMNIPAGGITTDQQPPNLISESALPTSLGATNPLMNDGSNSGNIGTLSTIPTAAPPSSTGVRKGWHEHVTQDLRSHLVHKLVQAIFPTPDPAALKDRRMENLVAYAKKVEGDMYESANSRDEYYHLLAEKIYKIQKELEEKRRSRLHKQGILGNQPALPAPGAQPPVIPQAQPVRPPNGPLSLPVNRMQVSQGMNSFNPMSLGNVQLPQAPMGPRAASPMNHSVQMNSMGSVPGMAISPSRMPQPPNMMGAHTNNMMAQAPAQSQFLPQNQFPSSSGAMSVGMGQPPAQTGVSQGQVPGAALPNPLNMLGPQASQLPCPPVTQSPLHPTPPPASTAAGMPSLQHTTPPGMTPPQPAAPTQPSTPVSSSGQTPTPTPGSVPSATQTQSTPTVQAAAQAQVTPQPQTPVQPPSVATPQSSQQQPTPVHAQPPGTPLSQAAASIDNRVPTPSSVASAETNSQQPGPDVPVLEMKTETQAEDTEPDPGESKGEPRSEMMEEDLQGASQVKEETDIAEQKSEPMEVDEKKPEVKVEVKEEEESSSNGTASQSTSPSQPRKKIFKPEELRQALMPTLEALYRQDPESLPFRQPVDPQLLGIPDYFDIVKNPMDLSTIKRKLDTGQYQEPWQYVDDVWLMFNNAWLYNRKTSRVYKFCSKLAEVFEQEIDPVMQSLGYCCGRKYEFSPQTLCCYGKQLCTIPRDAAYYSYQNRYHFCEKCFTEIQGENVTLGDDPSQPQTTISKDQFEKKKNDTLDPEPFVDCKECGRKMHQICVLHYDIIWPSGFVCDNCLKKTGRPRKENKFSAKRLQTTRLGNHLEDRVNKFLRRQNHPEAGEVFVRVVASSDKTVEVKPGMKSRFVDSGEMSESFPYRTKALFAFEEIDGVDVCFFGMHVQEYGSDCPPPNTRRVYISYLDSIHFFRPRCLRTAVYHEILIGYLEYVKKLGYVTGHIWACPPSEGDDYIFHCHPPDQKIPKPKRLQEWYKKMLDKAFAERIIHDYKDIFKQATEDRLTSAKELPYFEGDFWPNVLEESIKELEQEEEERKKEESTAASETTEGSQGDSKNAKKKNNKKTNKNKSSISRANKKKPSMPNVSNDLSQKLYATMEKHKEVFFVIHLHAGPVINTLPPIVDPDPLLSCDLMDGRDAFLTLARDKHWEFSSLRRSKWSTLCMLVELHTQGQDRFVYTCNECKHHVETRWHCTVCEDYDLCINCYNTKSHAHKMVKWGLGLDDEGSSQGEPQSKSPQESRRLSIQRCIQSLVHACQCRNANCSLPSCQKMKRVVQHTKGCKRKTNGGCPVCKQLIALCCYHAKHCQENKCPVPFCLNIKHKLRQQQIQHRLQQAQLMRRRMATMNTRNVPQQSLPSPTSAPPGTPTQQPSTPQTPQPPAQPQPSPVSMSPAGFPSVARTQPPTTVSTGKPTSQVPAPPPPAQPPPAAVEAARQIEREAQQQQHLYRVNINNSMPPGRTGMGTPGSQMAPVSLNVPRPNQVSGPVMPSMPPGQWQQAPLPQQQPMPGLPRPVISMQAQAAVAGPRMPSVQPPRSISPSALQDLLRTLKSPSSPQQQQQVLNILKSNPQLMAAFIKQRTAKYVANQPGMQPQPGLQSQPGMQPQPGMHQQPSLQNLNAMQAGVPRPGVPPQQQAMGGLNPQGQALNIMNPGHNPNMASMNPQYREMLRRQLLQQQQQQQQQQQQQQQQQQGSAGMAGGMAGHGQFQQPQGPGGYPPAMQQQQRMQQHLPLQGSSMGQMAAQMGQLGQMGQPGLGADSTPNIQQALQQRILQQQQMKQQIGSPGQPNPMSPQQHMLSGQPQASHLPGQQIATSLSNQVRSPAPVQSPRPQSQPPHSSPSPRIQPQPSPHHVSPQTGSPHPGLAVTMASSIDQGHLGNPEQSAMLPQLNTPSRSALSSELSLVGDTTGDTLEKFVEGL

A word on the IC50: it is the concentration needed to halve the response being measured.

Molecules are shown by their SMILES.

The experiment has as its target CBP (Homo sapiens (Human), UniProt Q92793). Nature of the experiment: biochemical.

`COc1ccc(-c2nc3cccc(-c4nn(C5CCOCC5)c5c4CN(C(C)=O)CC5)c3o2)cc1` [Example 159] registered an IC50 of 4.11 nM.
